From patent US7919495B2, “Pyridyl non-aromatic nitrogen-containing heterocyclic-1-carboxylate compound” (Astellas Pharma, Inc., priority 2005, dated 2011)

Amino acid sequences for entries named in this document (tags omitted).
UniProt O00519, whole entry: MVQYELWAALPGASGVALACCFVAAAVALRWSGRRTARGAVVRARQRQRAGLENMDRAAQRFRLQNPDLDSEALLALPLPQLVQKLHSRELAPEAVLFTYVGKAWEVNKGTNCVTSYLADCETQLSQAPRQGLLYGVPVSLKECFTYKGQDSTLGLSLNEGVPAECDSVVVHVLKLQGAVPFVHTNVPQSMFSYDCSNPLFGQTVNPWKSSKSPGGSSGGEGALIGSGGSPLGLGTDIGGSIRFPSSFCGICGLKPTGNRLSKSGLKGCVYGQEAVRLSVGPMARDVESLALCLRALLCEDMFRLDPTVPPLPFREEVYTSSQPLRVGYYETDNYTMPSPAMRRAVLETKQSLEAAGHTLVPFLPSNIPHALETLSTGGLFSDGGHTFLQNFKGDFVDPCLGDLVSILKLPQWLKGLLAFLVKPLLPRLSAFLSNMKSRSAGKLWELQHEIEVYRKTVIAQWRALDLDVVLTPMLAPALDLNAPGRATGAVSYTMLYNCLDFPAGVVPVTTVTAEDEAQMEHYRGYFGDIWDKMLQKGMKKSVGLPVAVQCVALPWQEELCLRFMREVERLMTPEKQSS

Molecular target: FAAH in human bladder epithelial cancer-derived cell line 5678 cells (Homo sapiens, UniProt O00519)
Assay: Screening for FAAH activity-inhibiting substance with human bladder epithelial cancer-derived cell (IC50, Table 64)
Assay type: cell-based
Settings: read-out: cell FAAH IC50

SMILES	IC50 [nM]
NC(=O)c1cncc(OC(=O)N2CCC(CCc3ccc(C(=O)N4CC4)cc3)CC2)c1	0.14
NC(=O)/C=C/c1cncc(OC(=O)N2CCC(CCc3ccccc3)CC2)c1	0.075
